The results in this text go back to US7098206B2, “Pharmaceutically active morpholinol” (SmithKline Beecham Corporation, priority 1998, dated 2006).

Amino acid sequences for entries named in this document (tags omitted). Residues count along the entry.
UniProt Q63380, 1-617: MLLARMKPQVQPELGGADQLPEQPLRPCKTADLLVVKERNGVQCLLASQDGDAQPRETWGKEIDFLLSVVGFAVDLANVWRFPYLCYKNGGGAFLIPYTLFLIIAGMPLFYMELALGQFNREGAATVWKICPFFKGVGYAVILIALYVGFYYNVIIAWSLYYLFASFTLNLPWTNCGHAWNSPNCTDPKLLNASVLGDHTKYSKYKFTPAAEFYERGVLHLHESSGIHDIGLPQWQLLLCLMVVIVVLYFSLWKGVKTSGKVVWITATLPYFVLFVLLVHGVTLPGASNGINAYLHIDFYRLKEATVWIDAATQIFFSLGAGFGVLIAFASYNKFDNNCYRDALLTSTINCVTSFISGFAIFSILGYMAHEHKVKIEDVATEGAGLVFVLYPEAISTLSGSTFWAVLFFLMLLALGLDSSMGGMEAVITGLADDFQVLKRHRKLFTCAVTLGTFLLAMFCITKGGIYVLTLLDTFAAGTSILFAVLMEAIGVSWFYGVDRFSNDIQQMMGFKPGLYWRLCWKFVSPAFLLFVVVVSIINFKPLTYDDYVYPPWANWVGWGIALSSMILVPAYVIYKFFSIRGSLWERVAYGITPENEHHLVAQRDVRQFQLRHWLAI

This assay has as its target T1, noradrenaline (NA) uptake, synaptosomes from rat hypothalamus (Rattus norvegicus, UniProt Q63380).
T1 construct: Synaptosomes for use in obtaining in vitro uptake data were prepared from hypothalamus or striatum by gently homogenizing the tissue; from tissue; host or cells: rat hypothalamus synaptosomes
The assay is described as follows: In vitro synaptosomal [3H]-noradrenaline uptake. The class given is biochemical.

Molecules are shown by their SMILES.

By IC50 is commonly meant the point on the concentration scale where inhibition reaches its midpoint. The compound `CN(C)CCCN1c2ccccc2CCc2ccccc21` [Imipramine] returned an IC50 of 72 nM.
